For orientation: pEC50 means the negative decadic logarithm of the EC50, by convention in mol/L.

Chains of the proteins cited; added tags and fusions are not shown. Lines headed by an entry give the natural chain unless they say otherwise; changes in a name come on top.
UniProt P31421: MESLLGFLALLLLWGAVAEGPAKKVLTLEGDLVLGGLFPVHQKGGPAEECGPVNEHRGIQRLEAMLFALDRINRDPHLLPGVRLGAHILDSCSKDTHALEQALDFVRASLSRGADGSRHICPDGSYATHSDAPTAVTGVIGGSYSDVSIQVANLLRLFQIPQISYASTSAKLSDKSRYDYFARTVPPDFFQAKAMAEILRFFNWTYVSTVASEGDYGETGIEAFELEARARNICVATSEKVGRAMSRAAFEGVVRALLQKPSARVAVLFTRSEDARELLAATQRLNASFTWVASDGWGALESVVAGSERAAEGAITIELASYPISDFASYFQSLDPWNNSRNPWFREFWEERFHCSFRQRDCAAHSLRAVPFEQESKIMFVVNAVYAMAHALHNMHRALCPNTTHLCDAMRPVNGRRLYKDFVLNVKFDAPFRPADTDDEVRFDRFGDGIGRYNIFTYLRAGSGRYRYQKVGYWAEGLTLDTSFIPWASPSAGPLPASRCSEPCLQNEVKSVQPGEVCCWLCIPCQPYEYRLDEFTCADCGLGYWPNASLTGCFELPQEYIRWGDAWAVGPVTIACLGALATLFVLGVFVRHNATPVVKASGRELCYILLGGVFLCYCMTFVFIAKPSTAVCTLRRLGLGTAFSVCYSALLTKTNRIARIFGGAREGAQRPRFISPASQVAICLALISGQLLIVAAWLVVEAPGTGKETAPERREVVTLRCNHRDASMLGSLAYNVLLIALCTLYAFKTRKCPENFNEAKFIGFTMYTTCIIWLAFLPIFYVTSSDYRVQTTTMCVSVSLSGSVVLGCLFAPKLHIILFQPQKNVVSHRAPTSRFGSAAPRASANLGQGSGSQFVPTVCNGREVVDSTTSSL

We go through 1 molecule from ChEMBL document CHEMBL2176994, “Radiosynthesis of PET radiotracer as a prodrug for imaging group II metabotropic glutamate receptors in vivo” (Bioorg Med Chem Lett, 2012).

The assay addresses Metabotropic glutamate receptor 2 (Rattus norvegicus, UniProt P31421). Description: Agonist activity at mGLUR2 in rat cerebral cortex assessed as inhibition of forskolin-stimulated cAMP production. The class given is functional, tissue-based.

SMILES strings stand for the structures. pEC50: −log10 of the molar value.

On to `N[C@@]1(C(=O)O)CC[C@H]2[C@H](C(=O)O)[C@H]21`, for which the pEC50 is 7.95.
